Experiment [1] addresses T1, human KOP receptor (Homo sapiens, UniProt P41145). Briefly: Radioligand competition binding, [3H]U69,593, membranes of transfected CHO cells (Kappa-CN). The conditions noted are these: for Ki: read-out: Receptor Binding, Ki KOP, [3H]U69,593 displacement, Cheng-Prusoff, mean ± SEM, at least three experiments in triplicate. (In a radioligand displacement assay an active substance lowers the binding of a labelled ligand.)

Sequences of proteins named here, by UniProt entry; tags and fusion partners are left off. A change or cut given only in a name is not applied to a line headed by its entry.
UniProt P41145: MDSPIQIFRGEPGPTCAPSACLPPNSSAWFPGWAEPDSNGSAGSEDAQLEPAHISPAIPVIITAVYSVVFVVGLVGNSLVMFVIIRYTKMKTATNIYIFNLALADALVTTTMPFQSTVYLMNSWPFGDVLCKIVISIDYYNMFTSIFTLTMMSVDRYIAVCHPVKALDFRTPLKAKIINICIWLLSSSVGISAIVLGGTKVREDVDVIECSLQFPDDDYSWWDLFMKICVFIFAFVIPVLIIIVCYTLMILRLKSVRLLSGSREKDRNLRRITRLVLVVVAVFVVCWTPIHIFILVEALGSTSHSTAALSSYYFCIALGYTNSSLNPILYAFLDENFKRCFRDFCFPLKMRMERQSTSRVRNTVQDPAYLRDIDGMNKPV
UniProt P41143, whole entry, looked up: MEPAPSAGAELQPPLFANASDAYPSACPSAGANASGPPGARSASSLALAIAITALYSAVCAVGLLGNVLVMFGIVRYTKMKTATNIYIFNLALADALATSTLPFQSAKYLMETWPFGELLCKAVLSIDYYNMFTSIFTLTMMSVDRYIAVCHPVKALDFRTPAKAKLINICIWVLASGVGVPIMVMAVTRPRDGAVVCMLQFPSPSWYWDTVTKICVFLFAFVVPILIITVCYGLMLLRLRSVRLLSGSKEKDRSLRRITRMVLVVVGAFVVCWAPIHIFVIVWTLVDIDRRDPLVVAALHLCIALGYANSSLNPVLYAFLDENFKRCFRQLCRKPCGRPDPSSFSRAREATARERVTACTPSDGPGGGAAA
UniProt P41146: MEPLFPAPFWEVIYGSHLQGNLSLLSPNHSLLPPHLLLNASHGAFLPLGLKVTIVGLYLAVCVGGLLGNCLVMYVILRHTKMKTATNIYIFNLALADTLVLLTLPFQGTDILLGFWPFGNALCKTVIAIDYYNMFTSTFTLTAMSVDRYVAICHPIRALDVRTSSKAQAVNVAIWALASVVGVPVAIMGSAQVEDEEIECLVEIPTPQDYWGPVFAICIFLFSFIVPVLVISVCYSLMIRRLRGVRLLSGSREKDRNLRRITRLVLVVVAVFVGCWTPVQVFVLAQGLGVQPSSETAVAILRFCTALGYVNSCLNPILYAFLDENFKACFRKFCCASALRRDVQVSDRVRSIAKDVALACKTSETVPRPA
UniProt P35372, whole entry, looked up: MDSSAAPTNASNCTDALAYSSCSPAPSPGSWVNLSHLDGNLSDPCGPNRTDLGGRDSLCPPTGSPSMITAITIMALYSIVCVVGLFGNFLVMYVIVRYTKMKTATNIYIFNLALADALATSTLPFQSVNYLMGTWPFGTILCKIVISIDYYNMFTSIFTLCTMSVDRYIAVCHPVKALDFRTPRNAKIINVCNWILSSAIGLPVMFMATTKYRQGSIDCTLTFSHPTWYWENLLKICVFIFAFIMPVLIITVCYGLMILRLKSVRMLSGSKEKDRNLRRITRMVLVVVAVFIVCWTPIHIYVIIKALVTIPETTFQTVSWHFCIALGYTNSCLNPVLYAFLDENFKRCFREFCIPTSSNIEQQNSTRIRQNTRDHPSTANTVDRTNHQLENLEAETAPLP

Experiment [2] addresses human DOP receptor (Homo sapiens, UniProt P41143). Put plainly: Radioligand competition binding, [3H]DPDPE, membranes of transfected CHO cells. The conditions noted are these: read-out: Receptor Binding, Ki DOP; [3H]DPDPE displacement; Cheng-Prusoff; mean ± SEM, at least three experiments in triplicate.
Experiment [3] addresses human NOP receptor (Homo sapiens, UniProt P41146). Briefly: Radioligand competition binding, [3H]N/OFQ, membranes of transfected CHO cells. The note with it: read-out: Receptor Binding, Ki NOP; [3H]N/OFQ displacement; Cheng-Prusoff; mean ± SEM, at least three experiments in triplicate.
In experiment [4] the target is T2, human MOP receptor (Homo sapiens, UniProt P35372). Briefly: Radioligand competition binding, [3H]DAMGO, membranes of transfected CHO cells. The note with it: read-out: Receptor Binding, Ki MOP; [3H]DAMGO displacement; Cheng-Prusoff; mean ± SEM, at least three experiments in triplicate.
Experiment [5] addresses T1, human KOP receptor. The note with it: Schild analysis, inhibition of agonist-induced [35S]GTPγS binding. Background: Binding of GTPγS marks nucleotide exchange on a G protein.
The target of experiment [6] is T2, human MOP receptor. Put plainly: [35S]GTPγS functional assay (intrinsic activity; Schild analysis vs DAMGO). Format: biochemical. The note with it: inhibition of agonist-induced [35S]GTPγS binding.

The structures appear in SMILES notation.

These results are taken from article PMC5643385, “Probing ligand recognition of the opioid pan antagonist AT-076 at nociceptin, kappa, mu, and delta opioid receptors through structure-activity relationships” (Scientific Reports, 2017).

One may read the Ki as the equilibrium dissociation constant of an inhibitor or competing ligand from its target. In the case of `CC(C)[C@@H](CN1CCC(N2C(=O)Cc3ccccc32)CC1)NC(=O)[C@H]1Cc2ccc(O)cc2CN1`, the inhibition constant (Ki) in experiment [1] was 2.6 nM; in experiment [2] it was 249 nM; in experiment [3], 91.2 nM; in experiment [4], 19.1 nM. For the same compound, in experiment [1] (vs 16), the “Reduction of KOP affinity compared to 16” value is recorded as 10 fold. Further, the “Antagonist Potency (pA2 ± SEM) KOP” value in experiment [5] was determined as 9.19 ± 0.16. Besides, the “Antagonist Potency (pA2 ± SEM) MOP” value in experiment [6] amounted to 7.98.
As to `CC(C)[C@@H](CN1CCC(N2CCc3ccccc32)CC1)NC(=O)[C@H]1Cc2ccc(O)cc2CN1`, the Ki was 0.371 nM in experiment [1] and 7.68 nM in experiment [4]. Moreover, the “Higher KOP affinity than AT-076” value in experiment [1] (vs AT-076) is 2–4 fold. Also, in experiment [6], the “Antagonist Potency (pA2 ± SEM) MOP” value was 8.32.
